From PubChem BioAssay
Hits are enriched below; roughly 2.8% of the tested compounds scored in any of these assays.
MITF TRPM1 HTS – activators of MITF-driven TRPM1 promoter activity in SK-MEL-5 cells. AID 588334. activation, % at 12.5 µM. 0.75% of 300,000 active. SK-MEL-5 TRPM1-promoter luciferase, 24 h; % of positive control, neutral wells = 0;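 active = mean activation of at least 80% with every replicate also reaching 80%; inconclusive = mean reaches 80% but some replicate falls short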;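 note: 0% = neutral control wells and 100% = parthenolide positive control wells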
Wnt act – activates Wnt/beta-catenin signaling in a reporter cell assay | AID 743398 | activator, plate reader | activation, % at 9.35 µM | 1.2% of 300,000 active; in the data active = activation above about 30%, passing the limit was not always enough; inconclusive = no clear call, values can overlap the other calls;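 note: 0% = neutral control wells and 100% = positive control wells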
miR122 inh – blocks miR-122 activity in Huh7 sensor cells | 0.3% of 340,000 active | AID 602342 | activation (reporter increase), % at 12.5 µM | Huh7 miR-122 Renilla luciferase sensor, 48 h; neutral wells = 0, positive control = 100;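 active = mean replicate activation score at least 90 and every replicate individually at or above 90; inconclusive = only one of the two criteria met; inactive = neither criterion met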;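 note: higher luciferase means less miR-122 activity so hits act as miR-122 inhibitors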
esBAF inh – blocks esBAF chromatin remodeling in mouse ES cells; Bmi1-luciferase knock-in reporter, 24 h; 100% = twice the neutral-well signal; reporter increase, % at 12.5 µM; 2% of 350,000 active; in the data active = activation above about 40%; inconclusive = no clear call, values can overlap the other calls;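 note: 0% = median of the plate's neutral control wells and 100% = double that signal; a rise in the Bmi1 reporter signal indicates esBAF inhibition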
PglD inh – blocks C. jejuni PglD acetyltransferase activity | 0.098% of 360,000 active | inhibition, % at 12.5 µM | purified PglD enzyme, DTNB colorimetric CoA detection; in the data active = inhibition above about 16%, passing the limit was not always enough; inconclusive = no clear call, values can overlap the other calls
Yeast UUG start – modulators of start codon recognition fidelity in yeast; AID 602363; hit rate 0.13% among 350,000; activity score, % at 18.7 µM; S. cerevisiae UUG-firefly luciferase reporter, luminescence/redox ratio;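 active = replicate mean at a twofold rise or more, about +100% in these data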;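 note: firefly luciferase made from a UUG start codon reports start codon fidelity; reporter light over untreated wells divided by growth signal over untreated wells; some hits fall short of that in this replicate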
An asterisk follows results filed as active; u = inconclusive; x = no result; [ ] = remark or other dose.

Results follow in this order: Wnt act	PglD inh	miR122 inh	Yeast UUG start	MITF TRPM1 HTS	esBAF inh
COc1cc(O)c2c(c1)OC(c1ccc(O)cc1)CC2=O (stereo unspecified)
 : -2	2	4	-1	13	1
COc1ccc(C(=O)c2oc3ccc(OC)cc3c2N)cc1
 : 47*	-2	4	-19	102*	86*
C[C@H](CO)N1C[C@H](C)[C@H](CN(C)S(=O)(=O)c2ccc(Cl)cc2)Oc2ccc(NC(=O)Nc3ccc4c(c3)OCO4)cc2CC1=O
 : x	2	-17[16.7 µM]	-5	x	1
O=C(Cc1nc2ccccc2[nH]c1=O)c1ccccc1
 : 33*	x	x	x	29	x
O=C(Cc1nc2ccccc2[nH]1)c1ccc(Br)cc1
 : 17	x	x	x	91*	x
C[C@H](CO)N1C[C@H](C)[C@@H](CN(C)Cc2ccccn2)Oc2cc(C3=CCCCC3)ccc2S1(=O)=O
 : x	1	49[16.7 µM]	-15	x	-5
Cc1cc(Cl)c2oc(C(=O)N(C)Cc3cc(C)[nH]n3)c(C)c2c1
 : 9	5	5	-16	4	1
Cc1ccc2oc(C(=O)N3CCN(c4cccc(C)n4)CC3)c(C)c2c1
 : 3	0	-3	0	18	26
Cc1cc(Cl)c2oc(C(=O)N3CCN(C(=O)c4ccco4)CC3)c(C)c2c1
 : 16	1	-1	-8	58	52*
Cc1cc(Cl)c2oc(C(=O)N3CCOCC3)c(C)c2c1
 : 4	-2	-6	3	x	67*
Cc1cc(Cl)c2oc(C(=O)N(C)Cc3ccon3)c(C)c2c1
 : 22	-2	-9	-14	46	71*
Cc1cc(Cl)c2oc(C(=O)N3CCN(c4cccc(C)n4)CC3)c(C)c2c1
 : 18	-5	x	1	x	74*
CS(=O)(=O)Nc1ccc2c(c1)[C@H]1C[C@H](CC(=O)NCC3CC3)O[C@@H](CO)[C@H]1O2
 : x	-1	2[16.7 µM]	x	x	-1
Cc1cc(Cl)c2oc(C(=O)N(C)C3CCOC3)c(C)c2c1 (stereo unspecified)
 : 27	-2	3	11	69	42*
Cc1ccc2oc(C(=O)N3CCCCCC3)c(C)c2c1
 : 29	-6	0	4	124*	64*

A second format for part of the listing above.
canonical_smiles | Wnt act | PglD inh | miR122 inh | Yeast UUG start | MITF TRPM1 HTS | esBAF inh
Cc1cc(Cl)c2oc(C(=O)N3CCN(C(=O)c4ccco4)CC3)c(C)c2c1 | 16 | 1 | -1 | -8 | 58 | 52*
Cc1cc(Cl)c2oc(C(=O)N3CCOCC3)c(C)c2c1 | 4 | -2 | -6 | 3 | x | 67*
Cc1cc(Cl)c2oc(C(=O)N(C)Cc3ccon3)c(C)c2c1 | 22 | -2 | -9 | -14 | 46 | 71*
Cc1cc(Cl)c2oc(C(=O)N3CCN(c4cccc(C)n4)CC3)c(C)c2c1 | 18 | -5 | x | 1 | x | 74*

Next section:
Results follow in this order: Wnt act	PglD inh	miR122 inh	Yeast UUG start	MITF TRPM1 HTS	esBAF inh
Cc1c(C(=O)N2CCCCC2)oc2ccc(Br)cc12
 : 22	x	-1	x	75	x
CO[C@H]1CN(C)C(=O)c2cc(NC(C)=O)ccc2OC[C@H](C)N(Cc2cncnc2)C[C@H]1C
 : x	-2	-1[16.7 µM]	2	x	-2
CCCCNC(=O)N(O)C1N(/N=C/c2ccccc2F)C(=S)SC1(C)C (stereo unspecified)
 : -2	-1	116*	-1	x	7
CC1CCN(c2ccc3c(c2)S(=O)(=O)c2cccc(C(=O)NCc4ccc(F)cc4)c2C3=O)CC1
 : 7	2	x	-21	x	70*
O=C(NC1CCCC1)c1cccc2c1C(=O)c1ccc(N3CCCCC3)cc1S2(=O)=O
 : 4	-3	x	-17	x	50*
COc1cccc(NC(=O)C[C@H]2CC[C@H]3[C@H](COc4ccc(NS(=O)(=O)c5cccc(F)c5)cc4C(=O)N3C)O2)c1
 : x	5	3[16.7 µM]	4	x	10
COc1ccccc1-c1cc(C(=O)NCCN2CCOCC2)no1
 : 0	-14	-3	-9	14	-2
COc1cc(C)ccc1OCc1cc(C(=O)N(C)CCCN2CCOCC2)no1
 : u	3	-8	-16	127*	74*
COc1cc(C)ccc1OCc1cc(C(=O)NCCN2CCOCC2)no1
 : 26	-1	-1	-14	107*	63*
C[C@@H]1CN([C@@H](C)CO)C(=O)Cc2cc(NC(=O)CCN3CCOCC3)ccc2O[C@@H]1CN(C)C
 : x	-12	10[16.7 µM]	6	x	1
Cc1ccc(C(=O)NCc2ccc(F)cc2)s1
 : 5	-5	-2	-2	x	x
O=C(NCCc1ccc(Cl)cc1)c1ccc(Br)s1
 : 18	-2	x	-13	u	64*
Cc1ccc(C(=O)NCCc2ccc(F)cc2)s1
 : 42*	-6	-4	-11	89*	17
NS(=O)(=O)c1ccc(CCNC(=O)c2ccc(Br)s2)cc1
 : -1	x	x	x	-3	x
C[C@H](CO)N1C[C@H](C)[C@@H](CN(C)Cc2ccc(Oc3ccccc3)cc2)Oc2ccc(N(C)C)cc2CC1=O
 : x	-2	-2[16.7 µM]	-4	x	1
Cc1cccc(S(=O)(=O)N2CCCCN3[C@H](CO)[C@H](c4ccc(C#C[C@@H](C)O)cc4)[C@@H]3C2)c1
 : x	6	3[16.7 µM]	6	x	-1
